Key:
[1] = molecular target: T1, Amyloid-beta precursor protein (Homo sapiens, UniProt P05067); assay: Inhibition of amyloid beta (1 to 42) (unknown origin) aggregation assessed as end-time for aggregation at 200 uM after 48 hrs by Thioflavin-T fluorescence assay
[2] = molecular target: T1, Amyloid-beta precursor protein; assay: Inhibition of amyloid beta (1 to 42) (unknown origin) aggregation assessed as half life for aggregation at 200 uM after 48 hrs by Thioflavin-T fluorescence assay
[3] = molecular target: T1, Amyloid-beta precursor protein; assay: Inhibition of amyloid beta (1 to 42) (unknown origin) aggregation assessed as apparent elongation constant at 200 uM after 48 hrs by Thioflavin-T fluorescence assay
[4] = molecular target: T1, Amyloid-beta precursor protein; assay: Inhibition of amyloid beta (1 to 42) (unknown origin) aggregation assessed as nucleation constant at 200 uM after 48 hrs by Thioflavin-T fluorescence assay

The chains behind the UniProt entries cited, without tags or fusion partners.
UniProt P05067, whole entry: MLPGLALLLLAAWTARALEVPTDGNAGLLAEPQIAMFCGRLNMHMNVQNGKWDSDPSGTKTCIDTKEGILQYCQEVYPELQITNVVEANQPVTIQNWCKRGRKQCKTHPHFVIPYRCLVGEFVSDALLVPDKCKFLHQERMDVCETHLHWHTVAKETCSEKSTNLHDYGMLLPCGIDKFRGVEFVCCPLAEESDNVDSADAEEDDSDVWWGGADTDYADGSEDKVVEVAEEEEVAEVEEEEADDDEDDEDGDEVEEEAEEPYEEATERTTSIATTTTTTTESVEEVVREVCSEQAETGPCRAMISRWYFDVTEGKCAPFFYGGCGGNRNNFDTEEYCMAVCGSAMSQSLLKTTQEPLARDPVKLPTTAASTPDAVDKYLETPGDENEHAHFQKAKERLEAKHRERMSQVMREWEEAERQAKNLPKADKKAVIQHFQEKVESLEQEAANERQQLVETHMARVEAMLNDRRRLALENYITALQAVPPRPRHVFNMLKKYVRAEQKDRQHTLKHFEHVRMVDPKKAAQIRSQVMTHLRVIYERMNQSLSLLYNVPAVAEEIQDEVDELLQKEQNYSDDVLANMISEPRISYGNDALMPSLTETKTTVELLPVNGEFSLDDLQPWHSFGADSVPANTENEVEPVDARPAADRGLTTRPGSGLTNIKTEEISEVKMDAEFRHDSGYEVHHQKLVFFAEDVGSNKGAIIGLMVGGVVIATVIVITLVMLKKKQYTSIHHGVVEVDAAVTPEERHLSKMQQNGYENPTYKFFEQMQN

**Q.** With `O=c1c(O)c(-c2ccc(O)c(O)c2)oc2cc(O)cc(O)c12` [QUERCETIN] as the molecule, how does the TIME [1] read?
**A.** The TIME was 8.39 h.

**Q.** And the T1/2 [2]?
**A.** Its T1/2 is 4.88 h.

**Q.** What about the Ke(app) [3] of the same molecule?
**A.** Its Ke(app) is 114 M⁻¹ s⁻¹.

**Q.** What about the K [4] of the same molecule?
**A.** The K was 496 ×10⁶ /min.
